SMILES strings stand for the structures. The list shows a part of the results, in another mix than the full data. Some of these compounds have results that are not shown, active ones among them. The source made the active and inactive calls. Rule as the data show it: active = inhibition above about 33%; inactive = the rest.

Chains of the proteins cited; added tags and fusions are not shown.
UniProt P03206, whole entry: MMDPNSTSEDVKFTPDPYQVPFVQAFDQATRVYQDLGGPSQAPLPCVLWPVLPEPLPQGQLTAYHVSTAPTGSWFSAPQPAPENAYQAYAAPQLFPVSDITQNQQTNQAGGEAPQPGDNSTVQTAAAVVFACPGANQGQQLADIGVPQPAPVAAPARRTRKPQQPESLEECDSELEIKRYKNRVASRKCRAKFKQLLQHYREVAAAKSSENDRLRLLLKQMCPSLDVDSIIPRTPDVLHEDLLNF

In this assay the target is Lytic switch protein BZLF1 (Epstein-Barr virus (strain B95-8)) (UniProt P03206). In words: Zta-DNA interaction blockers, Epstein-Barr virus – biochemical, fluorescence polarization, single concentration, counter-screen for EBNA-1 inhibitor project, primary screen (AID 2234). The conditions noted are these: ZTA-DNA binding, at 11 µM, hits give high values. A general note: In fluorescence polarisation assays a small probe gives low polarisation when free and higher when bound to something large.
Broadly, the inhibition is the change of the read-out against control, counted positive when it falls. As to `COc1cccc(C(=O)NCC2(N3CCCCC3)CCCCC2)c1`, the inhibition was inactive: -6.19%.

Take `COc1ccc(Cl)cc1C(=O)NCC1(N(C)C)CCCCC1`: the inhibition is inactive: 13.4%.

Regarding `O=C(NCC1(N2CCCCC2)CCCCC1)c1cccc(Cl)c1`, the inhibition was inactive: -4.81%.

Consider `CN(C)C1(CNC(=O)c2ccc(Br)cc2)CCCCC1`, for which the inhibition is inactive: 3.52%.

As to `COc1cc(C(=O)NCC2(N(C)C)CCCCC2)c([N+](=O)[O-])cc1OC`, the inhibition is inactive: 1.72%.

As for `COc1ccc(Br)c(C(=O)NCC2(N3CCCCC3)CCCCC2)c1`, the inhibition is inactive: -3.59%.

In the case of `CN(C)c1cccc(C(=O)NCC2(N(C)C)CCCCC2)c1`, the inhibition is inactive: -2.9%.

`CC(C)Oc1ccc(C(=O)NCC2(N(C)C)CCCCC2)cc1`: the inhibition was inactive: -13.4%.

As for `O=C(OC1CN2CCC1CC2)C(CO)(c1ccccc1)c1ccccc1` (centres undefined), the inhibition is inactive: 8.78%.

Turning to `CC(C)N1C(=O)CC2(CCN(CCOC(=O)C(O)(c3ccccc3)c3ccccc3)CC2)C1=O`, the inhibition was inactive: 0.92%.

Regarding `CCN(CC)CC(C)C(C)OC(=O)C(O)(c1ccccc1)c1ccccc1` (centres undefined), the inhibition was inactive: 7.91%.

On to `COc1cc(SC)ccc1C(=O)NCC1(N(C)C)CCCCC1`, for which the inhibition was inactive: -8.17%.

As to `Cc1ccc(C(=O)NCC2(N3CCCCC3)CCCCC2)cc1`, the inhibition is inactive: 11.8%.

As to `O=C(NCC1(N2CCCCC2)CCCCC1)c1cc([N+](=O)[O-])ccc1Cl`, the inhibition is inactive: -10.6%.

Turning to `CN1[C@@H]2CC[C@H]1CC(OC(=O)C(O)(c1ccccc1)c1ccccc1)C2` (some centres undefined), the inhibition was inactive: -11.1%.

In the case of `C=CCN1CCN(CCOC(=O)C(O)(c2ccccc2)c2ccccc2)CC1`, the inhibition is inactive: -3.61%.

As for `O=C(NCC1(N2CCCCC2)CCCCC1)c1cc(F)c(F)cc1Cl`, the inhibition is inactive: -7.08%.

For `CCN1CCCC(OC(=O)C2(O)c3ccccc3C=Cc3ccccc32)C1` (centres undefined), the inhibition was inactive: 1.15%.

Take `Cc1cc(C(=O)NCC2(N3CCCCC3)CCCCC2)ccc1[N+](=O)[O-]`: the inhibition is inactive: -1.89%.

Regarding `O=C(NCC1(N2CCCCC2)CCCCC1)c1cccc(Br)c1`, the inhibition was inactive: 8.02%.

For `COc1ccc(C(=O)NCC2(N(C)C)CCCCC2)cc1`, the inhibition is inactive: 0.47%.

On to `Cc1ccccc1C(=O)NCC1(N2CCCCC2)CCCCC1`, for which the inhibition is inactive: 1.37%.

`CN(C)c1ccc(C(=O)NCC2(N(C)C)CCCCC2)cc1`: the inhibition is inactive: -0.14%.

Take `CN(C)C1CCCC1OC(=O)C(O)(c1ccccc1)c1ccccc1` (centres undefined): the inhibition is inactive: 10.2%.

(Values after PubChem BioAssay AID2234 (The Scripps Research Institute Molecular Screening Center, 2010).)
